The data set in a line: Solubility of increasing delta-9-THC concentration in alcohol:water:propylene glycol 35:10:55 vehicle, visual observation. It counts as physicochemical. Particulars: Alcohol:Water:Propylene Glycol (35:10:55) (v/v); listed as delta-9-tetrahydrocannabinol.

Several values for one entry are separate records, joined by “and”; a condition that tells them apart may be missing. Equal entries are not always repeated. Bounds are passed on as bounds.

As for `CCCCCc1cc(O)c2c(c1)OC(C)(C)[C@@H]1CCC(C)=C[C@@H]21`, the “delta-9-tetrahydrocannabinol concentration able to be manufactured with this formulation” value is > 100 mg/mL and < 200 mg/mL.

The values are drawn from patent US6747058B1, “Stable composition for inhalation therapy comprising delta-9-tetrahydrocannabinol and semiaqueous solvent therefor” (Unimed Pharmaceuticals, Inc., priority 1999, dated 2004).
